Target: recombinant human TIMP-3 (human) (UniProt P35625)
Assay: cell-based or functional assay

Amino acid sequences for entries named in this document (tags omitted). Residues count along the entry.
UniProt P35625, 24-211 limits assumed: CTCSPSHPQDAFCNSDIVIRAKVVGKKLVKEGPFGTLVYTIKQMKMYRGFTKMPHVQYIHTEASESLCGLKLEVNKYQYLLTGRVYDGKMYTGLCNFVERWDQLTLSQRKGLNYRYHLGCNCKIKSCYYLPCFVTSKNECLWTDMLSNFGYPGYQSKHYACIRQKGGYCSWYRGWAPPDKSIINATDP

LRP-1 peptide LA10
% of the inhibitory activity of TIMP-3 + peptide compared to TIMP-3 alone, 16 nM: 106%
% of the inhibitory activity of TIMP-3 + peptide compared to TIMP-3 alone, 80 nM: 106%
% of the inhibitory activity of TIMP-3 + peptide compared to TIMP-3 alone, 400 nM: 102%
% of the inhibitory activity of TIMP-3 + peptide compared to TIMP-3 alone, 2000 nM: 103%

— US20120231013A1
